Experimental data from PubChem BioAssay AID705 (SRMLSC, 2007).
The list shows a part of the results, in another mix than the full data. Activity calls are given as the source filed them.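 How the source made its calls: active means growth inhibition above 25% in both replicates, a cutoff set 3 SD above the mean; inconclusive means above 25% in only one replicate; inactive means the rest.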

Assay: OD615 S. cerevisiae growth inhibition, permissive medium, pilot counter-assay, permissive growth control for S. cerevisiae lifespan shortening project (AID 705)
Details: OD615, 24 h, at 10 µM, active compounds read high
Method in brief: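 System: S. cerevisiae with engineered DeaD lifespan system. Medium: SC raffinose/galactose permissive medium. Doses: single compound dose of 10 µM, 0.25% DMSO final. Schedule: 24 h exposure, 30 °C. Measured by: OD615 turbidity read. Read-out: growth inhibition.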

| Structure (SMILES) | growth inhibition |
| --- | --- |
| CP(=O)(Nc1ccc2c(c1)OCCO2)Oc1ccccc1 (stereo not given) | inactive: -3.08% |
| CP(=O)(Oc1ccccc1)N1CCOC1=O (stereo not given) | inactive: 0.025% |
| CP(=O)(NC(=O)Nc1ccccc1)Oc1ccccc1 (stereo not given) | inactive: -6.03% |
| Cc1ccc(NP(C)(=O)Oc2ccccc2)c(C)c1 (stereo not given) | inactive: -8.25% |
| Cc1ccc(C)c(NP(C)(=O)Oc2ccccc2)c1 (stereo not given) | inactive: -11.4% |
